{"sequences": {"note": "Sequences of proteins named here, by UniProt entry; tags and fusion partners are left off. Residues count along the entry.", "UniProt P42676, 38-704": "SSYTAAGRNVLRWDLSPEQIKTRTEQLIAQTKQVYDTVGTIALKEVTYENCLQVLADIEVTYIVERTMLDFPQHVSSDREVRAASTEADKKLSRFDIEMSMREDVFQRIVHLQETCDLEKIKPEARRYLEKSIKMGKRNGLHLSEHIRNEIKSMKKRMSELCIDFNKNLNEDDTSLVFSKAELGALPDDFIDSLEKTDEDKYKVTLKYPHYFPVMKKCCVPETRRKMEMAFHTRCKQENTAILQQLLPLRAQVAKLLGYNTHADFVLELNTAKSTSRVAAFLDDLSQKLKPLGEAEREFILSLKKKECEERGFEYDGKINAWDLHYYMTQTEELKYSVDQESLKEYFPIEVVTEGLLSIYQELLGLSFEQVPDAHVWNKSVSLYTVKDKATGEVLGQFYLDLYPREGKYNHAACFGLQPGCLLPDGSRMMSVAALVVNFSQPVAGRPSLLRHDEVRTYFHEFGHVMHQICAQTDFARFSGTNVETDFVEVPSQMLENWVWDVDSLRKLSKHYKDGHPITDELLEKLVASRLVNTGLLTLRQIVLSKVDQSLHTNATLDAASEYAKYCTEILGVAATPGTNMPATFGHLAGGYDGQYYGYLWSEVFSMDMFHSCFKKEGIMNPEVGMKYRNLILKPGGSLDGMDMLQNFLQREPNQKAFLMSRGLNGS"}, "source": "paper PMC4152863", "about": "(Regulatory peptides, 2013)", "key": {"[1]": {"molecular_target": "T1, novel, non-AT1, non-AT2 angiotensin binding site (neurolysin) (Rattus norvegicus, UniProt P42676)", "experiment": "Inhibition or enhancement of PCMB-unmasked 125I-SI Ang II binding in membranes"}, "[2]": {"molecular_target": "T1, novel, non-AT1, non-AT2 angiotensin binding site (neurolysin)", "experiment": "Unmasking of specific 125I-SI Ang II binding in membranes"}}, "note": "“And” between values parts separate entries of the source, which are not always exact repeats. Equal entries are not always repeated."}
{"substance": "thimerosal", "values": [{"measurement": "inhibition of PCMB unmasking of 125I-SI Ang II binding, primary screening", "setting": "[1]", "result": "Greater than 50%"}, {"measurement": "inhibition of PCMB-unmasked 125I-SI Ang II binding, primary screening (in words)", "setting": "[1]", "result": "moderately inhibited"}, {"measurement": "Rmax, unmasked binding relative to PCMB unmasked binding", "setting": "[2]", "result": "34.7±1.6% and 49.9±9.2%"}, {"measurement": "unmasking of specific 125I-SI Ang II binding in the absence of PCMB (in words)", "setting": "[2]", "result": "unmasked non-AT1, non-AT2 binding independent of PCMB"}]}
